AlphaSeq binding of Ab-95 light chain variants to a spike HR2 peptide

Values reported by Engelhart et al. 2022, doi:10.1038/s41597-022-01779-4 (FLAb copy).

Antigen: PDVDLGDISGINAS, a 14-residue peptide of the SARS-CoV-2 spike HR2 region.

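Phage display of a naive human antibody library on the peptide gave the parent. Variants in AAYL52 differ from the parent at up to three CDR positions; double and triple changes were sampled at random. Affinity was read by AlphaSeq, a pooled yeast mating assay with surface-displayed partners. After mating in shaken culture at 30 °C for 16 h, diploids were selected and their barcode pairs sequenced. Scores were corrected for input abundance and mapped to Kd with protein pairs of known affinity run in the same pool. The assay was run in three technical replicates.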

Parent: Ab-95, a human scFv built as VH, the linker GGGGSGGGGSGGGGS, VL. Only the CDRs of the light chain vary.
VH: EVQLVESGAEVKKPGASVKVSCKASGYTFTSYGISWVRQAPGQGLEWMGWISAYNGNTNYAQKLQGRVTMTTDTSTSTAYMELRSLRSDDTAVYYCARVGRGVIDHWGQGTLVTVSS
VL: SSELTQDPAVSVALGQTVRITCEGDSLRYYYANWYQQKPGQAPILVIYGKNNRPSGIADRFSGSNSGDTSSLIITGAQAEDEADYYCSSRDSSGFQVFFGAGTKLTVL

The parent's light chain CDRs are EGDSLRYYYAN, GKNNRPS, SSRDSSGFQVF; each variant's own CDRs replace them letter for letter. This list gathers variants with a substitution at G94 (VL, numbered from residue 1). Scale: log10 of Kd in nM, estimated from mating counts; low values are strong binders. Averages over replicates are reported, and they cover detected replicates only. A pair that was not seen in that replicate is written "ND"; this usually means weak binding, but a binder can also be missed. In this assay the parent's reference entry averaged 2.31; its copy inside this library read 2.25. Three control strains display no target. For library AAYL52, 28% of the pairings with them gave a signal, with a median of 3.91 and one signal in twenty below 2.90, so weak values seen in few replicates may be background.

For EGDSLRYYYAN / CKNNRPS / QSRDSSCFQVF, the assay gave 3.47, 5.32, ND (mean 4.40). Variant EGDSLRYYYAN / GKNNRRS / SSRDSSCFEVF showed ND, ND, ND. Variant EGDSLNYYYAN / GKNNRPS / STRDSSAFQVF showed 3.97, 2.55, 3.15 (mean 3.22). For EGDSFRYYYAV / GKNNRPS / SSRDSSMFQVF, the assay gave 3.26, 3.49, ND (mean 3.38). With EGDSLRYYYSN / GKNNRPS / SSRDSSEFQLF the result was 2.51, 2.24, 2.70 (mean 2.48). Variant ENDSLRYYAAN / GKNNRPS / SSRDSSLFQVF gave 5.29, ND, 2.74 (mean 4.01). Variant EGDSHRYYYAN / GKNNRPS / SSRDLSVFQVF showed 3.50, 4.78, ND (mean 4.14). Variant EQDSLRYYYGN / GKNNRPS / SSRDSSWFQVF gave ND, ND, ND. Variant EGDSTRYYYAN / GKNNRPS / SSRLSSHFQVF gave 3.93, 5.47, 3.76 (mean 4.39).

Variant EGDSLRYYYAN / GKNNRPS / SSRVSSIFHVF showed 5.68, 5.81, 3.81 (mean 5.10). Variant EGDSLRYYSAN / GKNNRWS / SSRDSSLFQVF gave 3.88, 3.12, 2.36 (mean 3.12). For EGDSLRYYYAN / GKNNRPS / SSRRSFIFQVF, the assay gave 3.29, 5.00, ND (mean 4.15). Variant EGDSLRYYYAN / GKNVRPS / SSRDSSHFQVF showed 2.02, 2.32, 2.13 (mean 2.16). Variant VGDSLRYYYAN / GKNNRKS / SSRDSSYFQVF gave ND, ND, ND. Variant EGDSLRYYYAN / GKNNRPS / SSRDSIKFQVF showed 2.25, 1.90, 2.83 (mean 2.33). With EGDSLWYYYAN / GKNNRPS / SSRDSSPFQVF the result was ND, ND, 4.52. With EGDFLRYYYAN / GNNNRPS / SSRDSSAFQVF the result was 3.34, 3.39, 4.37 (mean 3.70). Variant EGDSLRYYYAN / GANNRPS / SSPDSSCFQVF showed ND, ND, ND.

Variant EGDSLLYYYAN / GKNNRPS / SSMDSSAFQVF showed 4.42, 5.72, 4.16 (mean 4.77). With IGDSLRYYYAN / GLNNRPS / SSRDSSVFQVF the result was 3.97, ND, 4.42 (mean 4.20). Variant EGDSLRYYYAN / GKNNRPF / SSRDSSNFQVF showed 3.07, 3.03, ND (mean 3.05). For EGDSLRYSYAN / GKNYRPS / SSRDSSIFQVF, the assay gave 1.51, 1.38, 1.11 (mean 1.33). With EGDSLRYYYAN / GKNHRPV / SSRDSSCFQVF the result was ND, 3.89, 3.41 (mean 3.65). Variant EGDSLRYYGAN / GKNNRPS / SSRDSSSMQVF showed 2.11, 2.33, 2.34 (mean 2.26). With EGDSLRYYYAG / GKNNRPS / SSRDSSYFKVF the result was 3.77, 5.54, ND (mean 4.66). With EGDSKRYNYAN / GKNNRPS / SSRDSSLFQVF the result was 2.85, 3.46, 3.95 (mean 3.42). With EGDSLRYYYAN / WKNNRPS / SSRDSSIFWVF the result was ND, 5.32, ND.

For EGDSLRYYYAN / GKNNRPS / SSRDSSRWMVF, the assay gave 4.30, 4.12, ND (mean 4.21). Variant EGDSLRYYYAN / FKNNRPS / SSRDSSCFQVF showed 4.04, ND, ND. For EEDSLRYYYAN / GKNNRPS / SSRDQSSFQVF, the assay gave ND, 5.17, ND. Variant EGDSLRYYYAN / GKNVRPS / SSRDSSRFQVF gave 3.27, 2.68, 2.35 (mean 2.76). With EGDSLRYYYAN / GKNNRPS / SSRDCSRFQVF the result was 2.64, 2.90, 2.57 (mean 2.70). Variant EGDSLRYYYAN / GKNNRPS / SHRDSSVFMVF gave ND, ND, ND. Variant EGDSLYYYYAN / GKNNRPS / SSRDSSFDQVF showed 3.33, 3.67, 4.22 (mean 3.74). For EGDSLRYYYAN / GKNNRPS / SSRDSSNFQVF, the assay gave 2.05, 1.69, 1.45 (mean 1.73). For NGDSLRYYYAN / GKNNRPS / SSRDSSKTQVF, the assay gave 2.53, 2.56, 2.49 (mean 2.53).

Variant TGDSLRYYYAN / GKNNRPS / SSRDHSWFQVF gave ND, ND, ND. Variant EGDSLRYEYAN / GKNGRPS / SSRDSSEFQVF showed 1.59, 1.51, 1.23 (mean 1.44). Variant EDDSLRYNYAN / GKNNRPS / SSRDSSCFQVF showed 1.56, 1.42, 1.33 (mean 1.43). Variant EGDSLRYYYAN / GKNNNPS / SSRDWSPFQVF showed 3.87, 3.44, 3.99 (mean 3.77). With EGDSLRYYYSN / GKNNRPS / SSRDSSTFQVF the result was ND, ND, ND. With EGVSWRYYYAN / GKNNRPS / SSRDSSCFQVF the result was 3.96, 4.35, ND (mean 4.16). For EGDSLRYYYAN / GKNNRYS / SSIDSSDFQVF, the assay gave ND, ND, ND. For EGDSNRYPYAN / GKNNRPS / SSRDSSFFQVF, the assay gave 2.93, 3.70, ND (mean 3.31). With EGDSLRYYYAN / GKNNRPP / SSRDSSAFQVF the result was 2.55, 3.32, 3.03 (mean 2.97).

Variant EGDSLRYYYAN / GKNNRPS / SSRDHSWFQLF gave ND, ND, 4.10. With EGDSLRYYYAN / GKNNRPS / TSRDSSHLQVF the result was ND, ND, 4.06. For EGDSLRYYYAN / GKNNDPS / SSRDSRIFQVF, the assay gave 3.44, 5.75, 2.44 (mean 3.88). Variant EGDSLRYVYAN / GKNNRPS / SSRDSSMFQVG gave 2.39, 2.17, 1.61 (mean 2.06). With EGDSLYYYYAN / FKNNRPS / SSRDSSLFQVF the result was 4.81, 5.66, ND (mean 5.24). Variant GGDSLRVYYAN / GKNNRPS / SSRDSSAFQVF showed 2.44, 2.45, 2.69 (mean 2.53).

Excerpt, the first 5 entries:

{"CDR-L1": "EGDSLRYYYAN", "CDR-L2": "CKNNRPS", "CDR-L3": "QSRDSSCFQVF", "log10 Kd (nM) by replicate": "3.47, 5.32, ND", "mean, log10 nM": "4.40"}
{"CDR-L1": "EGDSLRYYYAN", "CDR-L2": "GKNNRRS", "CDR-L3": "SSRDSSCFEVF", "log10 Kd (nM) by replicate": "ND, ND, ND", "mean, log10 nM": "ND"}
{"CDR-L1": "EGDSLNYYYAN", "CDR-L2": "GKNNRPS", "CDR-L3": "STRDSSAFQVF", "log10 Kd (nM) by replicate": "3.97, 2.55, 3.15", "mean, log10 nM": "3.22"}
{"CDR-L1": "EGDSFRYYYAV", "CDR-L2": "GKNNRPS", "CDR-L3": "SSRDSSMFQVF", "log10 Kd (nM) by replicate": "3.26, 3.49, ND", "mean, log10 nM": "3.38"}
{"CDR-L1": "EGDSLRYYYSN", "CDR-L2": "GKNNRPS", "CDR-L3": "SSRDSSEFQLF", "log10 Kd (nM) by replicate": "2.51, 2.24, 2.70", "mean, log10 nM": "2.48"}